Converted amounts (≈) assume the structure as drawn. “And” between values parts separate entries of the source, which are not always exact repeats. Equal entries are not always repeated. Structures can show the parent of a compound that is named as a salt.
Legend:
[1] = Solid stability, 25°C/92.5%RH open and 60°C closed, 1 week (XRPD, HPLC, color); set-up: CL (color) / Color: key to the marks not given beside the values; details: Solid; for Solid (XRPD): crystal form after storage
[2] = Solubility at 37°C in water, buffer and simulated biological fluids (2 h, 24 h)
[3] = Preliminary physical stability, open storage at 25°C/60% RH and 25°C/80% RH
[4] = Thermal analysis (DSC/TGA), thermal stability
[5] = Water activity competition experiment, ethanol/water, 5°C and 25°C; details: ethanol/water, 5 days
[6] = Pharmacokinetic study, plasma concentration by LC-MS/MS; details: Balb/c mice, male, fasted
HFpEF animal model = assay: HFpEF mouse model (HFD + L-NAME), echocardiography and Doppler imaging; details: Example 6; 12 mg/kg per administration, every other day, 0.5% PVP; 3 weeks after administration; Figure 73
[7] = 25°C/92.5%RH, open storage conditions
[8] = 25°C/60%RH, open storage for 3 days
[9] = 25°C/80%RH, open storage for 2 days
[10] = Intravenous injection 2 mg/kg, individual animals, listed as T-5224 free acid Form A, 2 mg/kg
[11] = Intravenous injection 2 mg/kg, mean of 3
[12] = Oral administration 12 mg/kg, individual animals, listed as T-5224 free acid Form A, 12 mg/kg
[13] = Oral administration 12 mg/kg, mean of 3, listed as T-5224 free acid Form A, 12 mg/kg
[14] = FaSSGF, pH 1.6, 37°C, LOQ: 0.5 µg/mL
[15] = FaSSGF, pH 1.6, 37°C, LOQ: 0.5µg/mL
[16] = Water, 37°C, target concentration 2mg/mL (as T-5224)

## O=C(O)CCc1cc(C(=O)c2ccc(OC3CCCC3)cc2O)ccc1OCc1ccc2c(O)noc2c1 [Diethylamine salt Form C]
[1]; [7]
  CL (color): A
  Solid (HPLC) Purity: 98.4%
  Solid (XRPD): Diethylamine salt Form C
[1]; 60°C, closed container
  CL (color): A
  Solid (HPLC) Purity: 98.4%
  Solid (XRPD): Diethylamine salt Form C
[2]; FaSSGF, pH 1.6, 37°C
  pH of the supernatant 24h: 1.5
[2]; Water, 37°C
  pH of the supernatant 24h: 8.1

## O=C(O)CCc1cc(C(=O)c2ccc(OC3CCCC3)cc2O)ccc1OCc1ccc2c(O)noc2c1 [Diethylamine salt Form A]
[3]; [8]
  moisture absorption and color change of the solid: No significant moisture absorption of the solid; no significant color change.
[3]; [9]
  moisture absorption and color change of the solid: No significant moisture absorption of the solid; no significant color change.

## O=C(O)CCc1cc(C(=O)c2ccc(OC3CCCC3)cc2O)ccc1OCc1ccc2c(O)noc2c1 [tert-Butylamine salt Form B]
[3]; [8]
  moisture absorption and color change of the solid: No significant moisture absorption of the solid; no significant color change.
[3]; [9]
  moisture absorption and color change of the solid: No significant moisture absorption of the solid; no significant color change.

## O=C(O)CCc1cc(C(=O)c2ccc(OC3CCCC3)cc2O)ccc1OCc1ccc2c(O)noc2c1 [Choline salt Form A]
[4]; @ 80°C
  Thermal weight loss (TGA): 2.6%
[4]; @ 80°C to 130°C
  Thermal weight loss (TGA): 0.1%
[5]; 5°C
  water activity (a.w.) at which choline salt Form A transforms to choline salt Form B / Form B is thermodynamically more stable: ≤ 0.6
[5]; 25°C
  water activity (a.w.) at which choline salt Form A transforms to choline salt Form B / Form B is thermodynamically more stable: ≤ 0.3
[3]; [8]
  moisture absorption and color change of the solid: No significant moisture absorption of the solid; no significant color change.
[3]; [9]
  moisture absorption and color change of the solid: No significant moisture absorption of the solid; no significant color change.
[1]; [7]
  CL (color): A
  Solid (HPLC) Purity: 99.5%
  Solid (XRPD): Choline salt Form A
[1]; 60°C, closed container
  CL (color): A
  Solid (HPLC) Purity: 99.5%
  Solid (XRPD): Choline salt Form A
[2]; FaSSGF, pH 1.6, 37°C
  pH of the supernatant 24h: 1.5
[2]; FaSSIF-v1, pH 6.5, 37°C
  pH of the supernatant 24h: 6.6
[2]; FeSSIF-v1, pH 5.0, 37°C
  pH of the supernatant 24h: 5.1
[2]; Water, 37°C
  pH of the supernatant 24h: 8.2

## O=C(O)CCc1cc(C(=O)c2ccc(OC3CCCC3)cc2O)ccc1OCc1ccc2c(O)noc2c1 [T-5224 Form A]
[6]; [10]
  AUC0-t: 670 ng·h/mL and 889 ng·h/mL and 855 ng·h/mL
  AUC0-∞: 716 ng·h/mL and 913 ng·h/mL and 902 ng·h/mL
  C0: 5514 ng/mL and 6797 ng/mL and 3784 ng/mL
  Cl: 46.5 mL/min/kg and 36.5 mL/min/kg and 36.9 mL/min/kg
  MRT: 0.55 h and 0.64 h and 0.68 h
  T1/2: 3.27 h and 1.68 h and 2.36 h
  Vss: 3.36 L/kg and 1.86 L/kg and 2.51 L/kg
  Vz: 13.16 L/kg and 5.31 L/kg and 7.54 L/kg
[6]; [11]
  AUC0-t, Mean: 805 ng·h/mL
  AUC0-∞, Mean: 844 ng·h/mL
  C0, Mean: 5365 ng/mL
  Cl, Mean: 40.0 mL/min/kg
  MRT, Mean: 0.62 h
  T1/2, Mean: 2.44 h
  Vss, Mean: 2.58 L/kg
  Vz, Mean: 8.67 L/kg
[6]; Oral administration 12 mg/kg, individual animals
  Tmax: 0.25 h
[6]; [12]
  AUC0-t: 1052 ng·h/mL and 694 ng·h/mL and 864 ng·h/mL
  AUC0-∞: 1070 ng·h/mL and 711 ng·h/mL and 876 ng·h/mL
  Cl -F: 187 mL/min/kg and 281 mL/min/kg and 228 mL/min/kg
  Cmax: 562 ng/mL and 751 ng/mL and 920 ng/mL
  MRT: 1.47 h and 1.04 h and 1.11 h
  T1/2: 1.00 h and 1.44 h and 0.98 h
  Vz -F: 16.2 L/kg and 35.1 L/kg and 19.5 L/kg
[6]; Oral administration 12 mg/kg, mean of 3
  Tmax, Mean: 0.25 h
[6]; [13]
  AUC0-t, Mean: 870 ng·h/mL
  AUC0-∞, Mean: 886 ng·h/mL
  Cl -F, Mean: 232 mL/min/kg
  Cmax, Mean: 744 ng/mL
  MRT, Mean: 1.21 h
  T1/2, Mean: 1.14 h
  Vz -F, Mean: 23.6 L/kg
HFpEF animal model
  diastolic function (E/E'): had not yet shown significant changes
[1]; [7]
  CL (color): A
  Solid (HPLC) Purity: 98.7%
  Solid (XRPD): T-5224 Form A
[1]; 60°C, closed container
  CL (color): A
  Solid (HPLC) Purity: 98.7%
  Solid (XRPD): T-5224 Form A
[2]; Example 3, text summary, 37°C
  solubility in pH 6.5 FaSSIF-v1: approximately 7 µg/mL
  solubility in water: 1 to 5 µg/mL
[2]; Example 4, 37°C, LOQ: 0.5µg/mL
  solubility in pH 1.6 FaSSGF: LOQ
[2]; [14]
  Solubility 2h: <LOQ
  Solubility 24h: LOQ
[2]; [15]
  Solubility 2h: <LOQ
  Solubility 24h: LOQ
[2]; FeSSIF-v1, pH 5.0, 37°C
  Solubility 2h: 16.2µg/ mL µg/mL and 23.3µg/mL
  Solubility 24h: 17.9 µg/mL and 20.9 µg/mL
[2]; Water, 37°C
  Solubility 2h: 1.4µg/m L µg/mL
  Solubility 24h: 1.4 µg/mL (≈ 2.71 µM)
[2]; [16]
  Solubility 2h: 7.8 µg/mL (≈ 15.1 µM)
  Solubility 24h: 8.9 µg/mL (≈ 17.2 µM)
[2]; pH 4.5 Acetate buffer (50mM), 37°C, LOQ: 0.5 µg/mL
  Solubility 2h: 2.8µg/m L µg/mL

## O=C(O)CCc1cc(C(=O)c2ccc(OC3CCCC3)cc2O)ccc1OCc1ccc2c(O)noc2c1 [Sodium salt Form B]
[3]; [8]
  moisture absorption and color change of the solid: No significant moisture absorption of the solid; no significant color change.
[3]; [9]
  moisture absorption and color change of the solid: No significant moisture absorption of the solid; no significant color change.

## O=C(O)CCc1cc(C(=O)c2ccc(OC3CCCC3)cc2O)ccc1OCc1ccc2c(O)noc2c1 [Dimethylethanolamine salt Form A]
[3]; [8]
  moisture absorption and color change of the solid: No significant moisture absorption of the solid; no significant color change.
[3]; [9]
  moisture absorption and color change of the solid: No significant moisture absorption of the solid; no significant color change.

## O=C(O)CCc1cc(C(=O)c2ccc(OC3CCCC3)cc2O)ccc1OCc1ccc2c(O)noc2c1 [Potassium salt Form B]
[3]; [8]
  moisture absorption and color change of the solid: No significant moisture absorption of the solid; no significant color change.
[3]; [9]
  moisture absorption and color change of the solid: No significant moisture absorption of the solid; no significant color change.
